For data set [1], the system named is MatTek EpiAirway tissue (AIR-100). Description: Tissue viability assay (MTT). As to conditions: AIR-100 EpiAirway tissues, 24 h apical treatment with 20 µL. The format is cell-based, human.
Data set [2] can be described thus: Characterization of NO release (chemiluminescence nitric oxide analyzer). Conditions: phosphate-buffered saline 10 mM, pH 7.4, 37 °C. It counts as physicochemical.

The values below come from article PMC11121837, “Impact of Nitric Oxide-Release Kinetics on Antifungal Activity” (Journal of Fungi, 2024).

Where “and” joins values, the source holds several entries; their conditions need not be identical. Equal entries are not always repeated.

As for `[O-]/[N+](=N\O)C(/[N+]([O-])=N/O)/[N+]([O-])=N/O`, in data set [1], the “IC50 (concentration needed to inhibit tissue viability by 50%)” value was 16,000 ± 1,000 µg mL-1. Also, in data set [2], the “[NO]max, maximum instantaneous NO concentration” value amounted to 2800 ± 170 ppb mg^−1; the “[NO]t, total NO released over full duration” value is 5.0 ± 0.7 µmol/mg; the “t1/2, half-life of NO release” value was ~ 3 h and 3.6 ± 0.8 h; the “td, duration of NO release” value is given as 42.8 ± 12.5 h.
